Test results published in ChEMBL document CHEMBL5500420, “Discovery of BI-9508, a Brain-Penetrant GPR88-Receptor-Agonist Tool Compound for In Vivo Mouse Studies” (J Med Chem, 2024).
Calls of active or inactive are those of the source. No cut-off for these calls is given here.

Experiments:
[1] = system: Medium spiny neuron; experiment: Effect on paired-pulse ratio in mouse dorsal striatum Medium spiny neurons at 5 uM incubated for 5 to 25 mins by whole cell patch clamp recording; format: functional, cell-based; conditions: time 5-25 min
[2] = system: Mus musculus; experiment: Reversal of morphine-induced hyperlocomotion in wildtype mouse assessed as decrease in distance travelled at 30 mg/kg, ip measured after 120 mins; format: functional, organism-based
[3] = system: Mus musculus; experiment: Reversal of morphine-induced hyperlocomotion in GPR88 knockout mouse assessed as decrease in distance travelled at 10 to 30 mg/kg, ip measured after 15 mins; format: functional, organism-based; conditions: dose 10-30 mg/kg
[4] = system: Mus musculus; experiment: Reversal of morphine-induced hyperlocomotion in wildtype mouse assessed as decrease in distance travelled at 10 to 30 mg/kg, ip measured after 15 mins; format: functional, organism-based; conditions: dose 10-30 mg/kg
[5] = system: Mus musculus; experiment: Reduction in spontaneous locomotor activity in wildtype mouse at 10 to 100 mg/kg, ip measured over 60 mins; format: functional, organism-based; conditions: dose 10-100 mg/kg
[6] = system: Medium spiny neuron; experiment: Reduction in cortical stimulation mediated evoked EPSC amplitude in mouse dorsal striatum Medium spiny neurons at 5 uM by whole cell patch clamp recording; format: functional, cell-based; conditions: time 5-25 min
[7] = organism: Mus musculus; experiment: Effect on [35S]-GTPgammaS binding activity in GPR88 knockout mouse striatal membrane incubated for 1 hrs in presence of GDP by liquid scintillation counter; format: functional, organism-based; conditions: Striatum
[8] = system: Medium spiny neuron; experiment: Enhancement of local intrastriatal stimulation evoked peak inhibitory post-synaptic current in mouse dorsal striatum Medium spiny neurons at 5 uM by whole cell patch clamp recording; format: functional, cell-based; conditions: time 5-25 min
[9] = system: Mus musculus; experiment: Reduction in spontaneous locomotor activity in GPR88 knockout mouse at 10 to 100 mg/kg, ip measured over 60 mins; format: functional, organism-based; conditions: dose 10-100 mg/kg

COc1cc(-c2ccc(OC(C)C)cc2)ccc1N(C[C@@H](N)[C@@H](C)OC)C(=O)[C@@H]1C[C@H]1c1ccncn1
Activity [1]: inactive
Activity [2]: Active
Activity [3]: inactive
Activity [4]: Active
Activity [5]: Active
Activity [6]: Tde
Activity [7]: inactive
Activity [8]: Tde
Activity [9]: inactive
